Assay results: PubChem BioAssay (NCATS)
Only a part is listed here, and it is no random draw. Some tests of the compounds listed are not included; inactive here does not mean inactive elsewhere. Records with an inconclusive call do not appear. Active and inactive are the calls of the source. The call rests on the fitted dose curve; in most records, active means well fitted curve in the direction sought with a large enough effect; inconclusive means small, poorly fitted or top-dose-only effect, or another doubt; inactive means no such curve, though single readings can be large; an effect the other way counts as inactive or inconclusive.

Experiments:
[1] = molecular target: Aldehyde dehydrogenase, mitochondrial (Homo sapiens) (UniProt P05091); experiment: qHTS for Inhibitors of the Aldehyde Dehydrogenase Family (ALDH2) Primary screen (AID 2061308); conditions: ALDH2 enzyme inhibition qHTS, 1536-well; at 56 µM (top of the series);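 further: plate controls were vehicle for no effect and reference inhibitor for full effect; nearly all actives have a fitted effect of over 55% in size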
[2] = molecular target: Retinaldehyde dehydrogenase 3 (Homo sapiens) (UniProt P47895); experiment: qHTS for Inhibitors of the Aldehyde Dehydrogenase Family (ALDH1A3) Primary screen (AID 2061315);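 further: plate controls were DMSO vehicle for no effect and reference inhibitor for full effect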; conditions: S. pombe CHP2027 cells, fluorescence laser cytometry, 18 h; at 56 µM (top of the series)

Question: How did the activity change, negative = inhibition [1] turn out when `O=C(C1CCC1)N1CCN(C/C=C/c2ccccc2)CC1` was run?
Answer: inactive: -0.952%

Question: And the activity change, negative = inhibition [2]?
Answer: inactive: -3.06%
